Data taken from patent publication US20080044491A1, “METAL-CONTAINING FORMULATIONS AND METHODS OF USE” (priority 2006, published 2008).

Experiment: Compatibility of nanocrystalline silver with excipients
Assay type: physicochemical
Conditions: 10% aqueous solution of excipient with nanocrystalline silver, glass vial, 40° C. overnight

## Hexylene glycol
  Reaction with nanocrystalline silver: Grey - no discoloration
